PubChem BioAssay AID2237 (Johns Hopkins Ion Channel Center, 2010)
The list shows a part of the results, in another mix than the full data. The source made the active and inactive calls.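 How the source made its calls: active means B-score above 5 SD of library B-scores, and initial fluorescence ratio not above library mean plus 5 SD; inactive means the rest.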

By UniProt entry, the sequences of proteins in these tests, tags left out.
UniProt Q9QUQ5, whole entry: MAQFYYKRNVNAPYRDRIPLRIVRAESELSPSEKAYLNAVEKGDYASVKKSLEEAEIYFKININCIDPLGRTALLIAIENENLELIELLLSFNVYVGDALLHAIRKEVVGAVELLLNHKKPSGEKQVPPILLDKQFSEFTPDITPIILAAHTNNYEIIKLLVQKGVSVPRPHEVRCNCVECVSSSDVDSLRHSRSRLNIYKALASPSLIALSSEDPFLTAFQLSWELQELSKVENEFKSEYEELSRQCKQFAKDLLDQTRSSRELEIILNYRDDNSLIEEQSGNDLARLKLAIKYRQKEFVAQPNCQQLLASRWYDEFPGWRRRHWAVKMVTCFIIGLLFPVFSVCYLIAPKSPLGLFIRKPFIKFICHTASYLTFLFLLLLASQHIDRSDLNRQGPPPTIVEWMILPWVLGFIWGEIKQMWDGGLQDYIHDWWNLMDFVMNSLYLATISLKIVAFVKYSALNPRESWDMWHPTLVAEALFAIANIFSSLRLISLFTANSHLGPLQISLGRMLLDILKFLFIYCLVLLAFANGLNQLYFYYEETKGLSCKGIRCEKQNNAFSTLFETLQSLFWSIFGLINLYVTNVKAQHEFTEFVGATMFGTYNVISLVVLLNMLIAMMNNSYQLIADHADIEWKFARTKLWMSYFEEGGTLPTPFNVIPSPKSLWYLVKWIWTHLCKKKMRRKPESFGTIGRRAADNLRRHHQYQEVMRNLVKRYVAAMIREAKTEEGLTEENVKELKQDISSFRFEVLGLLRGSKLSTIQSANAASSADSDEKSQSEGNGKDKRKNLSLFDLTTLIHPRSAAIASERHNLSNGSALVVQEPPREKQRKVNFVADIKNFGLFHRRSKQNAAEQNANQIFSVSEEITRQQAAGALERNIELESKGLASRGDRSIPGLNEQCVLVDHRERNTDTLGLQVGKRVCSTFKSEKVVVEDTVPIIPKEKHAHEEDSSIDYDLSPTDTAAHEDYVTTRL

Target: Short transient receptor potential channel 4 (Mus musculus) (UniProt Q9QUQ5)
Assay: activators of mouse TRPC4 channel, primary screen, Fluo4 calcium, HEK293 TRPC4beta/mu-opioid cells (AID 2237)
Details: Fluo4 calcium fluorescence, at 10 µM

SMILES | outcome
O=C(OCCN1CCN(CCOCc2ccccc2)CC1)C(O)(c1ccccc1)c1ccccc1 | inactive
O=C(OC1CN2CCC1CC2)c1ccc([N+](=O)[O-])cc1 (stereo not drawn) | inactive
CC(=O)c1ccc(N2CC2c2ccncc2)cc1 (stereo not drawn) | inactive
COc1ccc(OP(C)(=O)Nc2ccc(SC(F)(F)F)cc2)cc1 (stereo not drawn) | inactive
CCOC(=O)c1ccc(NP(C)(=O)Oc2ccc(F)cc2)cc1 (stereo not drawn) | inactive
Cc1ccc(NP(=O)(Oc2cccc(C)c2)Oc2cccc(C)c2)nc1 | inactive
CCOC(=O)NC(Sc1ccccc1)C(Cl)(Cl)Cl (stereo not drawn) | inactive
c1ccc(-c2nn[nH]n2)c(-c2nn[nH]n2)c1 | inactive
CCNC(=S)/N=C(\N)N[N+](=O)[O-] | inactive
O=C(NC1CCS(=O)(=O)C1)NP(=S)(Oc1ccccc1)Oc1ccccc1 (stereo not drawn) | inactive
O=[N+]([O-])c1cc([N+](=O)[O-])c(OC2CCCCC2O)c([N+](=O)[O-])c1 (stereo not drawn) | inactive
CCCCCOc1ccc(NP(C)(=O)Oc2ccc(Cl)cc2Cl)cc1 (stereo not drawn) | inactive
CN(C)C(=O)Oc1noc2ccccc12 | inactive
Cc1ccccc1OP(=O)(Nc1ccccn1)Oc1ccccc1C | inactive
CP(=O)(Nc1ccccc1)Oc1ccc(F)cc1 (stereo not drawn) | inactive
CCN(CC)CCCOC(=O)C(O)(c1ccccc1)C1CCCCC1 (stereo not drawn) | inactive
CCC(=O)N1C2C3N(C(=O)CC)C1C1N(C(=O)CC)C(C(N1C(=O)CC)N3C(=O)CC)N2C(=O)CC | inactive
O=C(OC1CN2CCC1CC2)c1ccccc1 (stereo not drawn) | inactive
CC(=O)NC(SC(=S)N(CC(C)C)CC(C)C)C(Cl)(Cl)Cl (stereo not drawn) | inactive
Cc1ccc(OP(=O)(Nc2ccccn2)Oc2ccc(C)cc2)cc1 | inactive
COC(=O)c1cc2c(s1)N=C(c1ccccc1)N(C)P2(=O)N1CCOCC1 (stereo not drawn) | inactive
COc1ccc(NP(C)(=O)Oc2ccccc2OC)cc1 (stereo not drawn) | inactive

SMILES | outcome
C[C@H]1OP(=O)(Oc2ccccc2)[C@H](O)[C@H](O)[C@H]1N=[N+]=[N-] (stereo partly drawn) | inactive
CN(C)CCOC(=O)C(O)(c1ccccc1)C1CCCCC1 (stereo not drawn) | inactive
O=P(Nc1nc2ccccc2s1)(c1ccccc1)c1ccccc1 | inactive
O=P(Nc1ccccn1)(c1ccc(Br)cc1)c1ccc(Br)cc1 | inactive
COc1ccc(OP(C)(=O)Nc2cccc(Br)c2)cc1 (stereo not drawn) | inactive
O=C(OC1CN2CCC1CC2)c1cccc(Cl)c1 (stereo not drawn) | inactive
C(Cc1nn[nH]n1)Cc1nn[nH]n1 | inactive
Nc1ccc([As](=O)(O)c2ccc([N+](=O)[O-])cc2)cc1 | inactive
Cc1cc(-c2cccc3ccccc23)c(C)cn1.O=[N+]([O-])c1cc([N+](=O)[O-])c(O)c([N+](=O)[O-])c1 | inactive
O=[N+]([O-])c1cc([N+](=O)[O-])c(NCC2CCS(=O)(=O)C2)c([N+](=O)[O-])c1 (stereo not drawn) | inactive
O=[As](O)(c1ccccc1)c1ccc(O)cc1 | inactive
O=[N+]([O-])c1ccc(O)c(/C=N/Nc2ccc([N+](=O)[O-])cc2[N+](=O)[O-])c1 | inactive
O=[N+]([O-])c1ccc(OP2(=O)COCCO2)cc1 (stereo not drawn) | inactive
CC(=O)NC(SC(=S)N(C)C)C(Cl)(Cl)Cl (stereo not drawn) | inactive
O=[N+]([O-])c1ncn(CCn2cnc([N+](=O)[O-])n2)n1 | inactive
c1nnnn1CCn1cnnn1 | inactive
CCOP(C)(=S)SCC(=O)NC(C)(CC)C(=O)O (stereo not drawn) | inactive
CC(C)C(=O)NC(Sc1ccccc1)C(Cl)(Cl)Cl (stereo not drawn) | inactive
O=P(Nc1nccs1)(c1ccccc1)c1ccccc1 | inactive
CP(=O)(Nc1ccc(SC(F)(F)F)cc1)Oc1ccc(F)cc1 (stereo not drawn) | inactive
CP(=O)(Nc1ccc2c(c1)OCCO2)Oc1ccccc1 (stereo not drawn) | inactive
